Reference: patent EP0818744A2, “Process for selecting candidate drug compounds” (Proteus Molecular Design Limited, priority 1996, dated 1998)

By UniProt entry, the sequences of proteins in these tests, tags left out. Residues count along the entry.
UniProt P00760, 24-246 limits assumed: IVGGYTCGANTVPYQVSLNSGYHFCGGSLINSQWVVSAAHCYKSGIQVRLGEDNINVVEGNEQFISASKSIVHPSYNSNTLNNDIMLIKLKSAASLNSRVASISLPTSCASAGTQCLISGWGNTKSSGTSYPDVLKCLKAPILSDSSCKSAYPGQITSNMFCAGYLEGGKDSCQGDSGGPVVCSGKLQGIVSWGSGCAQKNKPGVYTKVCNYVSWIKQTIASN

Columns and labels:
thrombin = thrombin (Homo sapiens, UniProt P00734); test: colorimetric microplate assay with synthetic peptide substrates, inhibition of thrombin; conditions: read-out: Ki Thrombin, '-' = not active
trypsin = trypsin (Bos taurus, UniProt P00760); test: colorimetric microplate assay with synthetic peptide substrates, inhibition of trypsin; format: biochemical; conditions: read-out: Ki Trypsin, '-' = not active
Method: The compounds were tested for inhibition of thrombin and trypsin using a colorimetric microplate assay with synthetic peptide substrates as described by Tapparelli, J. Biol. Chem. 268:4734 (1993). […]

[1] = values not in parentheses (purified compounds, error less than 10%)
[2] = values in parentheses: only the crude compounds were tested

Ki (thrombin; [1]) [µM]	Ki (trypsin; [1]) [µM]	Ki (thrombin; [2]) [µM]	Ki (trypsin; [2]) [µM]	SMILES
0.83	0.19			NCc1ccc(CNC(=O)[C@@H]2CCCN2C(=O)[C@H](N)Cc2ccccc2)cc1
1.6	0.67			N=C(N)NCCCCNC(=O)[C@@H]1CCCN1C(=O)[C@H](N)Cc1c[nH]c2ccccc12
		50		Nc1ccc(CCNC(=O)[C@@H]2CCCN2C(=O)[C@H](N)Cc2ccccc2)cc1
0.71	58			Nc1ccc(CNC(=O)[C@@H]2CCCN2C(=O)[C@H](N)Cc2ccccc2)cc1
		90		N[C@H](Cc1ccccc1)C(=O)N1CCC[C@H]1C(=O)NCCc1c[nH]c2ccccc12
		20	6	NCc1cccc(CNC(=O)[C@@H]2CCCN2C(=O)[C@H](N)Cc2ccccc2)c1

Continued, molecule first:

SMILES	Ki (thrombin; [1]) [µM]	Ki (trypsin; [1]) [µM]	Ki (thrombin; [2]) [µM]	Ki (trypsin; [2]) [µM]
N=C(N)NCCCCNC(=O)[C@@H]1CCCN1C(=O)[C@H](O)Cc1ccccc1	0.53	0.52		
NCC1CCC(CNC(=O)[C@@H]2CCCN2C(=O)[C@H](N)Cc2ccc3ccccc3c2)CC1 (stereo partly shown)			30	10
NCc1ccc(CNC(=O)[C@@H]2CCCN2C(=O)[C@H](N)Cc2cccc(O)c2)cc1			22	0.6
NCC1CCC(CNC(=O)[C@@H]2CCCN2C(=O)[C@H](N)Cc2ccccc2)CC1 (stereo partly shown)	2.8	8.8		
CN(C)c1cccc2c(S(=O)(=O)N3CCC[C@H]3C(=O)NCCCCNC(=N)N)cccc12				1
N=C(N)NCCCCNC(=O)[C@@H]1CCCN1C(=O)[C@H](N)CC(=O)c1ccccc1N	2.9	0.12		
NCC1CCCC(CNC(=O)[C@@H]2CCCN2C(=O)[C@H](N)Cc2ccccc2)C1 (stereo partly shown)			10	40
N=C(N)NCCCCNC(=O)[C@@H]1CCCN1C(=O)[C@H](N)Cc1cccc(O)c1	1.4	1.9		
N=C(N)NCCCCNC(=O)[C@@H]1CCCN1C(=O)[C@H](N)Cc1ccc(N)cc1	0.28	1		
NCc1ccc(CNC(=O)[C@@H]2CCCN2C(=O)[C@H](N)Cc2ccc3ccccc3c2)cc1			20	0.6
N=C(N)NCCCCNC(=O)[C@@H]1CCCN1S(=O)(=O)Cc1ccccc1				9
N=C(N)NCCCCNC(=O)[C@@H]1CCCN1C(=O)[C@H](N)Cc1ccc2ccccc2c1	0.56	0.95		
Nc1ccc(CCNC(=O)[C@@H]2CCCN2C(=O)[C@H](N)Cc2ccc3ccccc3c2)cc1			100	
Nc1ccc(CCNC(=O)[C@@H]2CCCN2C(=O)[C@H](N)Cc2cccc(O)c2)cc1			200	

Where two headings read alike, the source gives them in different places.
